From publication PMC12929587 (Nature Communications, 2026)

Molecular target: T1, bacteriophage T4 neck protein gp14 (bacteriophage T4, UniProt P11111 1-256)
T1 sequence (looked up): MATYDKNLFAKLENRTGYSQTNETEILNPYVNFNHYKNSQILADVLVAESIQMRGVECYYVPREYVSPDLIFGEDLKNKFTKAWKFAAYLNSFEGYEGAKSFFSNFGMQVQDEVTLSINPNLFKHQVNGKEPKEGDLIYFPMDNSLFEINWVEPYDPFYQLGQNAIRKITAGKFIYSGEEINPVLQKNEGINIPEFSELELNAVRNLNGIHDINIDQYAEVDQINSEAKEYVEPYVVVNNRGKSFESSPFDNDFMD
Test: SDS-PAGE densitometry of the purified complex

B1: recombinant Hfq protein (natural protein, E. coli, UniProt P0A6X3 1-102, looked up)
chain: MAKGQSLQDPFLNALRRERVPVSIYLVNGIKLQGQIESFDQFVILLKNTVSQMVYKHAISTVVPSRPVSHHSNNAGGGTSSNYHHGSSAQNTSAQQDSEETE
stoichiometry N: ~1 gp14 per Hfq
